The list shows a part of the results, in another mix than the full data. Active and inactive are the calls of the source. Rule as the data show it: active = inhibition above about 35%; inactive = the rest.

The assay is described as follows: lowers stimulated NF-kB luciferase signal in 697 B cells – cell-based, luminescence, uHTS, B-cell NF-kB inhibitor project, primary screen (AID 435022). The conditions noted are these: 697 B-cell NF-kB luciferase reporter, PMA/ionomycin, 16 h; at 4 µM; hits give high values.
For `O=P1(Nc2ncccn2)COc2ccccc2OC1`, the inhibition is inactive: -36.9%.
Then `O=[As](O)(c1cccs1)c1cccs1`, with inactive: -3.89%; and `Cc1ccc(OCC(=O)OC2CN3CCC2CC3)cc1` (stereo not given), with inactive: 3.63%; and `NS(=O)(=O)c1cccc(NC(=O)COC(=O)C(O)(c2ccccc2)c2ccccc2)c1`, with inactive: 11.2%.
For `O=P1(Nc2ccc(Br)cn2)COc2ccccc2OC1`, the inhibition is inactive: 11.3%.
Take `Nc1cccc([As](=O)(O)c2ccccc2)c1`: the inhibition was inactive: 13.1%.
Next, `Cc1nn(-c2ccccc2)c2c1P(=O)(N1CCOCC1)N(C)C(c1ccccc1)=N2` (stereo not given): inactive: 3.34%; `Cc1ccc(C(=O)OC2CN3CCC2CC3)cc1` (stereo not given): inactive: 16%; `CC1CCC(C(C)C)C(OP(=O)(Nc2ccccn2)c2ccccc2)C1` (stereo not given): inactive: 9.89%.
Then `O=C(/C=C/c1ccccc1)OC1CN2CCC1CC2` (stereo not given), with inactive: -5.32%.
In the case of `CN(C)C1(CNC(=O)c2ccc(S(C)(=O)=O)cc2)CCCCC1`, the inhibition is inactive: 4.3%.
Then `COc1ccccc1CNC(=O)COC(=O)C(O)(c1ccccc1)c1ccccc1`, with inactive: -3.31%; and `O=[As](O)(c1ccccc1Br)c1ccccc1Br`, with inactive: 2.03%.
As to `CC1(CBr)Cn2c(nc3ccccc3c2=O)S1` (stereo not given), the inhibition is inactive: 7.43%.
In the case of `CN(C(=O)Cc1ccc(Cl)c(Cl)c1)[C@@H]1CCCC[C@H]1N1CCCC1`, the inhibition was inactive: -11.3%.
As to `CC(C)/C=N\N=C(\N)N[N+](=O)[O-]`, the inhibition was inactive: 3.55%.
Consider `CCOP(=O)(Nc1ccc(C)cn1)OCC`, for which the inhibition is inactive: 18%.
Take `CN(CCCl)Cc1cc(Cl)c(NC2=NCCN2)c(Cl)c1`: the inhibition was inactive: 11.2%.
Then `CCC1=CC2Cc3nc4ccc(Cl)cc4c(N)c3C(C1)C2` (stereo not given), with inactive: -24.5%; and `O=P1(Nc2ccccn2)COc2ccccc2OC1`, with inactive: -31.1%.
Then `CCOP(=O)(NC(=NC(C)c1ccccc1)NC(C)c1ccccc1)OCC` (stereo not given), with inactive: -27.8%; and `Clc1n[nH]nc1-c1nn[nH][15n]1`, with inactive: 20%; and `CC(C)(C)C(=O)NC(Sc1ncccn1)C(Cl)(Cl)Cl` (stereo not given), with inactive: 9.07%.
Consider `CCCOP(=S)(Nc1nc(N)cc(=O)[nH]1)OCCC`, for which the inhibition was inactive: 1.08%.
Next, `Cc1ccc(NCCc2c([N+](=O)[O-])cc([N+](=O)[O-])cc2[N+](=O)[O-])cc1`: inactive: 6.65%.
Next, `COc1cc(C2NCCC3(OCCO3)C2(C)C)cc(OC)c1OC` (stereo not given): inactive: -3.82%; `CCOP(=O)(Nc1cccc2ccccc12)OCC`: inactive: -4.81%; `O=[As](O)(O)c1cccnc1`: inactive: -15.9%.
Then `COc1cc(C(=O)NCC2(N3CCOCC3)CCCCC2)cc(Cl)c1OC(C)C`, with inactive: -17.1%; and `CS(=O)(=O)c1ccc(Cl)c(NC(=O)COC(=O)C(O)(c2ccccc2)c2ccccc2)c1`, with inactive: -13.9%.
As for `O=C(OC1CN2CCC1CC2)c1ccc(Cl)cc1` (stereo not given), the inhibition is inactive: -7.27%.
For `Cc1cccc(OCC(=O)OC2CN3CCC2CC3)c1` (stereo not given), the inhibition is inactive: 10.5%.
Then `O=[As](O)(c1cccc(O)c1)c1cccc(O)c1`, with inactive: -9.36%; and `NC(=O)Nc1ccc([As](=O)(O)O)cc1`, with inactive: -6.76%; and `O=[N+]([O-])c1ccc2c(c1)nnn2O`, with inactive: 10.7%.
Consider `CN(C)C(=O)c1cc([N+](=O)[O-])cc2c1-c1c(cc([N+](=O)[O-])cc1[N+](=O)[O-])C2=O`, for which the inhibition is inactive: -20.1%.
Next, `CN(C(=O)Cc1ccc(Cl)c(Cl)c1)[C@H]1CC[C@@]2(CCCO2)C[C@@H]1N1CCCC1`: inactive: 4.05%.
Next, `N#CCCN(C(=O)COC(=O)C(O)(c1ccccc1)c1ccccc1)c1ccc(F)cc1`: inactive: -17.7%; `CN(C(=O)Cc1ccccc1)[C@@H]1CC[C@]2(CCCO2)C[C@H]1N1CCCC1`: inactive: 9.55%; `CCOP1(=S)c2c(C)nn(CCC#N)c2N=C(c2ccc(F)cc2)N1C` (stereo not given): inactive: 10.9%.
Next, `CS(=O)(=O)c1cc([N+](=O)[O-])c2no[n+]([O-])c2c1`: inactive: 2.07%; `CCOP1(=S)c2c(C)nn(CCC#N)c2N=C(c2ccccc2F)N1C` (stereo not given): inactive: 11.8%.
With `O=P(Nc1nccs1)(Oc1ccccc1)Oc1ccccc1`, the inhibition is inactive: -13.8%.
Take `O=P(Nc1nccs1)(c1ccccc1)c1nc2ccccc2s1` (stereo not given): the inhibition is inactive: -18.8%.
Take `O=C(O)COc1ccc([As](=O)(O)O)cc1[N+](=O)[O-]`: the inhibition is inactive: 0.54%.
Then `Nc1ccccc1[As](=O)(O)c1ccccc1`, with inactive: 8.88%; and `CC(C)c1ccc(OP(=O)(Nc2ccccn2)Oc2ccccc2F)cc1` (stereo not given), with inactive: -20.1%; and `ClCCSc1nnc(-c2cccnc2)o1`, with inactive: -0.597%.
Take `CC(C)NC(=O)NP(=O)(Oc1ccccc1)Oc1ccccc1`: the inhibition was inactive: 11.7%.
On to `O=C(OC1CN2CCC1CC2)c1cccc2[nH]cnc12` (stereo not given), for which the inhibition is inactive: 5.68%.
Then `CCN(CC)C(=S)SC(NC=O)C(Cl)(Cl)Cl` (stereo not given), with inactive: -26%; and `O=[N+]([O-])c1cc([N+](=O)[O-])c(-c2ccn[nH]2)s1`, with inactive: -3.52%; and `C[As](=O)(O)c1cccc(C(=O)O)c1`, with inactive: -4.02%.
Consider `O=[As](O)(c1ccc(O)cc1)c1ccccc1O`, for which the inhibition is inactive: -0.319%.
Next, `COc1cc(C(=O)NCC2(N3CCOCC3)CCCCC2)ccc1OCC(C)C`: inactive: 6.37%; `Cc1ccc2nc3c(c(C)c2c1)CC(C(Cl)Cl)S3` (stereo not given): inactive: -25.9%.
Consider `Cc1ccc(OP(=O)(Nc2ccc([N+](=O)[O-])cn2)Oc2ccc(C)cc2)cc1`, for which the inhibition was inactive: -17.5%.
Next, `COc1ccc(N/C(=N/P(=O)(N2CCOCC2)N2CCOCC2)N2CCOCC2)cc1`: inactive: 19.7%; `O=C(OC1CN2CCC1CC2)C12CC3CC(CC(C3)C1)C2` (stereo not given): inactive: 10.5%.
With `Cc1cc(=O)[nH]c(N[N+](=O)[O-])n1`, the inhibition is inactive: -9.63%.
Then `Cc1c2c(nc3ccccc13)SC(C(Cl)Cl)C2` (stereo not given), with inactive: -13.5%.
Then `COc1ccc2nc(NP(=O)(c3ccccc3)c3ccccc3)sc2c1`, with inactive: 8.06%.
Then `COc1cc(I)ccc1[As](=O)(O)O`, with inactive: 2.8%; and `CCOC(=O)c1ccc(NC(=O)C(C)(CCl)SC)cc1` (stereo not given), with inactive: -25.6%; and `O=C(OC1CN2CCC1CC2)c1cccc([N+](=O)[O-])c1` (stereo not given), with inactive: 4.12%.
`CCC(C)N(CC(C)C)C(=S)SC(NC(C)=O)C(Cl)(Cl)Cl` (stereo not given): the inhibition is inactive: 11.9%.
Next, `COP1(=S)c2c(C)nn(CCC#N)c2N=C(c2ccc(F)cc2)N1C` (stereo not given): inactive: 0.129%.
`O=C(COc1ccccc1)OC1CN2CCC1CC2` (stereo not given): the inhibition is inactive: -0.982%.
Regarding `O=C(Nc1ccncc1[N+](=O)[O-])c1ccc([N+](=O)[O-])cc1[N+](=O)[O-]`, the inhibition was inactive: 6.46%.
Then `CCOC(=O)Nc1cccc([As](=O)(O)O)c1`, with inactive: -6.73%; and `Cc1cc(SC(NC=O)C(Cl)(Cl)Cl)ncn1` (stereo not given), with inactive: 3.39%.
Then `O=P(Nc1ccccn1)(c1cccc2ccccc12)c1cccc2ccccc12`, with inactive: -10.4%; and `CCOC(=O)Nc1ccc([As](=O)(O)O)c(O)c1`, with inactive: 25.8%.
Then `CCCCOc1ccc(C(=O)NCC2(N3CCCCC3)CCCCC2)cc1OC`, with inactive: -9.65%.
With `Cc1cc(SC(NC(=O)c2ccccc2)C(Cl)(Cl)Cl)nc(C(C)C)n1` (stereo not given), the inhibition was inactive: 4.75%.
For `CC(C)(C)C(=O)NC(Sc1ccncn1)C(Cl)(Cl)Cl` (stereo not given), the inhibition was inactive: 22.5%.
For `O=[N+]([O-])c1ncn(CCn2ncnc2[N+](=O)[O-])n1`, the inhibition was inactive: 10.7%.
Next, `O=[N+]([O-])c1cccc(NC2=NCC(CBr)S2)c1` (stereo not given): inactive: -11.9%; `O=C(Nc1cc([As](=O)(O)O)ccc1O)c1ccccc1`: inactive: 3.23%; `Nc1ccc([As](=O)(O)c2ccc(N)cc2)cc1`: inactive: 13.4%.
With `C[N+]1=C2C=CC=CC=C2SC12C([N+](=O)[O-])=CC([N+](=O)[O-])=C[C-]2[N+](=O)[O-]` (stereo not given), the inhibition is inactive: -33%.
Then `CCN(/C(=N/P(=O)(N1CCOCC1)N1CCOCC1)N1CCOCC1)c1ccc(OC)cc1`, with inactive: 2.57%.
Then `CC(C)=N/N=C(\N)N[N+](=O)[O-]`, with inactive: 1.64%.
In the case of `CN(C)C(=O)OCCc1n(C)cc[n+]1C`, the inhibition was inactive: 12.7%.
Then `CC1CCN(C(=O)Oc2c(Cl)cc(Cl)c3cccnc23)CC1`, with inactive: 1.93%; and `COc1ccc(C2=NCC(CBr)S2)cc1` (stereo not given), with inactive: -6.68%; and `CC(=O)N1C2C3N(C(C)=O)C1C1N(C(C)=O)C(C(N1C(C)=O)N3C(C)=O)N2C(C)=O`, with inactive: 8.87%.
For `O=[N+]([O-])c1cccc2n[nH]nc12`, the inhibition is inactive: -27.1%.
Next, `Cc1ccc(NP(=O)(Oc2ccccc2)Oc2ccccc2)nc1`: inactive: -18.6%; `O=[N+]([O-])c1cc([N+](=O)[O-])c(CCNc2ccccc2)c([N+](=O)[O-])c1`: inactive: 1.32%; `CCc1nc2c(n1)c1c(non1O)c1c2no[n+]1[O-]`: inactive: -43.6%.
Then `Nc1cc(N)c2nonc2c1[N+](=O)[O-]`, with inactive: 3.29%.
Next, `CC(C)CC(=O)NC(Sc1ccc(Cl)cc1)C(Cl)(Cl)Cl` (stereo not given): inactive: -8.58%; `Oc1ccccc1CNc1ccccn1`: inactive: 12.5%; `O=C(NC(Sc1ccncn1)C(Cl)(Cl)Cl)c1ccccc1` (stereo not given): inactive: 4.07%.
Consider `Cc1c2non([O-])c-2c(C)[n+](=O)[n+]1[O-]`, for which the inhibition was inactive: 2.9%.
Then `NC(=O)c1cc([N+](=O)[O-])cc([N+](=O)[O-])c1N`, with inactive: 9.15%; and `CN(C(=O)Cc1ccc(Cl)c(Cl)c1)[C@H]1CCCC[C@H]1N1CCCC1`, with inactive: 21%; and `Cc1ccc(N/C(=N/P(=O)(N2CCOCC2)N2CCOCC2)N2CCOCC2)cc1`, with inactive: 5.73%.
Consider `COc1ccccc1OP(=O)(Nc1ccc(C)cn1)Oc1ccccc1OC`, for which the inhibition was inactive: -4.3%.

Values taken from PubChem BioAssay AID435022 (Sanford-Burnham Center for Chemical Genomics, 2010).
